# Experimental data reported in PubChem BioAssay AID463111 (Johns Hopkins Ion Channel Center, 2010).
# Only a part is listed here, and it is no random draw. Calls of active or inactive are those of the source.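 The calls were made as follows: active = B-score of the integrated calcium signal more than 4 SD below the library mean, with starting fluorescence not abnormally high; inactive = the rest.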
# Experiment: RGS4 potentiators or activators, primary screen, cell-based, HEK293 M3R inducible RGS4, calcium flux (AID 463111);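 also: negative B-score means reduced calcium response which marks RGS4 activation or potentiation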
# Settings: HEK293 M3R/inducible RGS4, carbachol calcium flux Fluo4; at 10 µM; hits give low values
# How it was run: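 Assay system: Inducible-RGS4 HEK293 cells carrying M3 receptor | Schedule: Compound preincubation 20 min at room temperature before agonist | Signal: Kinetic calcium fluorescence imaging with Fluo4-AM dye, 2 µM | Read-out basis: B score from integrated fluorescence ratio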
row,Compound,B-score
1,O=C(OC1CN2CCC1CC2)c1cccc(Cl)c1 (configuration not stated),active: -7.87
2,Cc1ccccc1OP(=O)(Nc1ccccn1)Oc1ccccc1C,active: -7.65
3,Cc1c2non([O-])c-2c(C)[n+](=O)[n+]1[O-],active: -7.21
4,CN1CCCC(OC(=O)C(c2ccccc2)c2ccccc2)C1 (configuration not stated),active: -10.6
5,O=C(OC1CN2CCC1CC2)C12CC3CC(CC(C3)C1)C2 (configuration not stated),active: -9.69
6,O=C(OC1CN2CCC1CC2)c1ccc(Cl)cc1 (configuration not stated),active: -9.27
7,CN(C(=O)Cc1ccccc1)[C@@H]1CC[C@]2(CCCO2)C[C@H]1N1CCCC1,active: -10.4
